Laboratory results reported in PMC10119890 (British journal of pharmacology, 2021).

Sequences of proteins named here, by UniProt entry; tags and fusion partners are left off.
UniProt O95800, whole entry: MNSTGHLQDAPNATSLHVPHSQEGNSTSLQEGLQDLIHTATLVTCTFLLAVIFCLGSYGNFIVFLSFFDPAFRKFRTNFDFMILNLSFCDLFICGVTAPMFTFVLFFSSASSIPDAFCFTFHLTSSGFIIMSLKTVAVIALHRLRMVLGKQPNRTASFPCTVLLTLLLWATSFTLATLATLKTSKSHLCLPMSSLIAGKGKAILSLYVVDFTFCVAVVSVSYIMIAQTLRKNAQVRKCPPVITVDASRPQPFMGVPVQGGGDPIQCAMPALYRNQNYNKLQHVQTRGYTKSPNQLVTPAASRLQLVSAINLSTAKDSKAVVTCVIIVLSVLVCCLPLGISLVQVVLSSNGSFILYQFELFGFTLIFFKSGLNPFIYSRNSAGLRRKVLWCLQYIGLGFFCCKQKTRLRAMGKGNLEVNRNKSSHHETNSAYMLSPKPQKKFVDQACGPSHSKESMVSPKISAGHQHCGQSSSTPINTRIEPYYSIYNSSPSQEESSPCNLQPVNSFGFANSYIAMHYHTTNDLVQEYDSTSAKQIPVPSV

Target: GPR75 (Homo sapiens, UniProt O95800)
Assay: SPR on immobilized recombinant GPR75
Type: binding

Kd: 156 pM
SMILES: O=C(O)CCC/C=C\C/C=C\C/C=C\C/C=C\CCCCCO [20-HETE, 20-hydroxy-5,8,11,14-eicosatetraenoic acid]
